From patent US6437002B1, “Agent for preventing and treating skin diseases” (Showa Denko K.K., priority 1998, dated 2002) come the findings set out here.

This data set is described as follows: Test (B): durability (activity duration) on storage. Type of data set: physicochemical. Particulars: 0.5% in water (oil-soluble: emulsion with 2% Tween 80), stored at 40° C. for one month. The method, then:
An ascorbic acid derivative was dissolved in water to have a concentration of 0.5% (in the case of an oil-soluble SF-621 US material, it was emulsion-dispersed in an ordinary manner by adding 2% of a surfactant Tween 80 (trademark)) and stored at 40° C. for one month. Then the residual amount of the derivative was measured by the HPLC method described later in the Examples. When the residual ratio was 90% or more, the evaluation was “+” and when it was less than 90%, the evaluation was “−”.
An ascorbic acid derivative was dissolved in water to have a concentration of 0.5% (in the case of an oil-soluble material, it was emulsion-dispersed in an ordinary manner by adding 2% of a surfactant Tween 80 (trademark)) and stored at 40° C. for one month. Then the residual amount of the derivative was measured by the HPLC method. When the residual ratio was 90% or more, the evaluation was “+” and when it was less than 90%, the evaluation was “−”.

In the case of “2-Palmitoyloxy-L-ascorbic acid-2-phosphate”, the “Test (B): durability (residual ratio of the derivative by HPLC)” value is reported as “+ (When the residual ratio was 90% or more, the evaluation was “+”)”.
